{"sequences": {"note": "Chains of the proteins cited; added tags and fusions are not shown. Residues count along the entry.", "UniProt Q91ZI0, 32-3301": "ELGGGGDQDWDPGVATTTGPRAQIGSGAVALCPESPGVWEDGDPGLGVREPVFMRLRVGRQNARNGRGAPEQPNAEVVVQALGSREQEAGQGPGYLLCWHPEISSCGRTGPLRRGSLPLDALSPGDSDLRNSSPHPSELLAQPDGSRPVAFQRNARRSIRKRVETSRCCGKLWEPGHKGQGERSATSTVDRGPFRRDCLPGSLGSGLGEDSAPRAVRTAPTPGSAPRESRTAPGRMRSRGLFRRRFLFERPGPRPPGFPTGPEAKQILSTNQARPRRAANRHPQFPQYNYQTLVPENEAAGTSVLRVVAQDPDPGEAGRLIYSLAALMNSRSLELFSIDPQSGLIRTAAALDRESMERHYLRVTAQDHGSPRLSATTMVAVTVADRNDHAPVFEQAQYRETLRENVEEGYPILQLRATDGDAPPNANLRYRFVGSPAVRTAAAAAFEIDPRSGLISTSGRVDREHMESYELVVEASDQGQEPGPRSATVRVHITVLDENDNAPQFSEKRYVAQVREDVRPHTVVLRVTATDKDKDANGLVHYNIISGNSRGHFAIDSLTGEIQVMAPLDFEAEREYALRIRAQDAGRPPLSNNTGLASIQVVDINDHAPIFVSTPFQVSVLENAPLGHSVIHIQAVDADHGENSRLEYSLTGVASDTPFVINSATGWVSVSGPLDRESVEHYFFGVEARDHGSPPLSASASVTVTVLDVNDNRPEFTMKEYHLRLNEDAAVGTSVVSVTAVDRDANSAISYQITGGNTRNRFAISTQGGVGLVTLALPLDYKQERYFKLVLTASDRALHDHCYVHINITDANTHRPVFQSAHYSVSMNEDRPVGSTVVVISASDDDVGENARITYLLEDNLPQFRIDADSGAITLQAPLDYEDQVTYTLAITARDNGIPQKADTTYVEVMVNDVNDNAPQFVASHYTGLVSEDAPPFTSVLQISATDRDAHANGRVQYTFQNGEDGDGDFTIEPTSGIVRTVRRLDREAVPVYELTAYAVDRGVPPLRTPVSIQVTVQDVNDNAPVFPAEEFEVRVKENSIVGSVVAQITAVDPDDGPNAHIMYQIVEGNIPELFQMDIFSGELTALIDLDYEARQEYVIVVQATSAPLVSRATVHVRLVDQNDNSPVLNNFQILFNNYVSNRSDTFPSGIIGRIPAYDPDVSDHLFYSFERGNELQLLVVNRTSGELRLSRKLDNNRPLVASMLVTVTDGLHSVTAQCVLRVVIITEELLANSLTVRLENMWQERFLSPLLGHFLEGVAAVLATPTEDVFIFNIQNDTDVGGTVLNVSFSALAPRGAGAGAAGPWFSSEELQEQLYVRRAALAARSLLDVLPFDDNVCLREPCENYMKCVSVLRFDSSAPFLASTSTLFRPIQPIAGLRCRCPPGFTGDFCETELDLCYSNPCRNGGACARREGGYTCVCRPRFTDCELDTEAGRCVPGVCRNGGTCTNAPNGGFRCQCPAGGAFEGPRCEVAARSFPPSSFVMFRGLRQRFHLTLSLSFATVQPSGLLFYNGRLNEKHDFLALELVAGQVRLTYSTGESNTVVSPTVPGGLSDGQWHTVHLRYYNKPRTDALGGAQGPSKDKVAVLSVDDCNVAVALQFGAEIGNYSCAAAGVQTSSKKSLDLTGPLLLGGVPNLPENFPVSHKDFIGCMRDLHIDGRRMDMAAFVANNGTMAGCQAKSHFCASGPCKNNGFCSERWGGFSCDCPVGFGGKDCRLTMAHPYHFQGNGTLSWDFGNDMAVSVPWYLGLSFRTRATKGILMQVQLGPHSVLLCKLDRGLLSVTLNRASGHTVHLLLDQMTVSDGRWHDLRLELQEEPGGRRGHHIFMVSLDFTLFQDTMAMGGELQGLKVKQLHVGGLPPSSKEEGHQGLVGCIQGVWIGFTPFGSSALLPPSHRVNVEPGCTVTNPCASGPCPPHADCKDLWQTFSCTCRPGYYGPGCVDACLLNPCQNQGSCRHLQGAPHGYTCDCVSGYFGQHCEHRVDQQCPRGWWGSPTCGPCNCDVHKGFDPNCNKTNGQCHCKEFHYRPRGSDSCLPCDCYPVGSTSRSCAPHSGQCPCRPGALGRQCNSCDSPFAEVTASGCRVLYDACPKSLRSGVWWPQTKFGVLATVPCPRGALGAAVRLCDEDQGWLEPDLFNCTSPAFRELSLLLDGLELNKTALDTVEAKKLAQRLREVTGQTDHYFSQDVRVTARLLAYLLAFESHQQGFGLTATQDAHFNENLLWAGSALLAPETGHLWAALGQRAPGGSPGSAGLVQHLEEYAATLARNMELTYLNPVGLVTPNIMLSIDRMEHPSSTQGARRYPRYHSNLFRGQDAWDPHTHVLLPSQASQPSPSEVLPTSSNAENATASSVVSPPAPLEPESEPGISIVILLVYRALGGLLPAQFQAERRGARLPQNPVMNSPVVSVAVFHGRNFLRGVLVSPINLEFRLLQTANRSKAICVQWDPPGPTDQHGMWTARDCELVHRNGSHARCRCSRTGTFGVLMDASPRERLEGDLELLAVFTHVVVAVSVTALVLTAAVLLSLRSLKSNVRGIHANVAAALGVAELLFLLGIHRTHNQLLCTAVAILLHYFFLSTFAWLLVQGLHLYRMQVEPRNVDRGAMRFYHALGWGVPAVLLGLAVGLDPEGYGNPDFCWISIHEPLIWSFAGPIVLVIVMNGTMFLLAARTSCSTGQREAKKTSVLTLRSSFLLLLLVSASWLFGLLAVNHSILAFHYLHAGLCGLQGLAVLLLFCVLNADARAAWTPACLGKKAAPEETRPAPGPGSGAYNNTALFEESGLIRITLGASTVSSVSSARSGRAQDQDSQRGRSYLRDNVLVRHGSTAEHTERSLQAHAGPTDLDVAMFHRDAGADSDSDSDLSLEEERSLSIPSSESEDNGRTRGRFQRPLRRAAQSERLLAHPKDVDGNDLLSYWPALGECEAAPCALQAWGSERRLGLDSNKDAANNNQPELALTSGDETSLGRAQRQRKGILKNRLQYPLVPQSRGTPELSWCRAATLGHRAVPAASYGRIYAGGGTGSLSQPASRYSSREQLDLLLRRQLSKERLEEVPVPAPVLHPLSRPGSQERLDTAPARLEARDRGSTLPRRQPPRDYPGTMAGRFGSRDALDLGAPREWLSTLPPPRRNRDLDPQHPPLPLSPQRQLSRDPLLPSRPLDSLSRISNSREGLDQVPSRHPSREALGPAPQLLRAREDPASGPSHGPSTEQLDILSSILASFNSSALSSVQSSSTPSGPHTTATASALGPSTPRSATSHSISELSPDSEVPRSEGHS"}, "source": "patent US20220380454A1", "key": {"[1]": {"target": "mouse Celsr3 (Celsr3-Flag) (mouse) (UniProt Q91ZI0)", "assay": "biotin-Aβ42 oligomers on Celsr3-Flag HEK293T cells, streptavidin-488 imaging; concentration as total peptide, monomer equivalent"}, "[2]": {"target": "mouse Celsr3 (Celsr3-Flag) (mouse) (UniProt Q91ZI0)", "assay": "binding of biotin-Aβ42 oligomers to Celsr3-expressing HEK293T cells; concentration as total peptide, monomer equivalent"}}}
{"substance": "oligomeric Aβ42 (biotin-Aβ42 oligomers) (peptide; biotin (human biotin-beta-Amyloid (1-42), AnaSpec); position not stated)", "values": [{"measurement": "Kd", "setting": "[1]", "value": 40, "unit": "nM"}, {"measurement": "Kd", "setting": "[2]", "value": 39.2, "unit": "nM"}]}
